{"source": "patent US9249466", "about": "(AGENCY FOR SCIENCE TECHNOLOGY AND RESEARCH, dated 2016)", "binders": {"B1": {"name": "c-Myc (other, human, UniProt P01106 16-454, looked up)", "chain": "MPLNVSFTNRNYDLDYDSVQPYFYCDEEENFYQQQQQSELQPPAPSEDIWKKFELLPTPPLSPSRRSGLCSPSYVAVTPFSLRGDNDGGGGSFSTADQLEMVTELLGGDMVNQSFICDPDDETFIKNIIIQDCMWSGFSAAAKLVSEKLASYQAARKDSGSPNPARGHSVCSTSSLYLQDLSAAASECIDPSVVFPYPLNDSSSPKSCASQDSSAFSPSSDSLLSSTESSPQGSPEPLVLHEETPPTTSSDSEEEQEDEEEIDVVSVEKRQAPGKRSESGSPSAGGHSKPPHSPLVLKRCHVSTHQHNYAAPPSTRKDYPAAKRVKLDSVRVLRQISNNRKCTSPRSSDTEENVKRRTHNVLERQRRNELKRSFFALRDQIPELENNEKAPKVVILKKATAYILSVQAEEQKLISEEDLLRKRREQLKHKLEQLRNSCA"}}, "target": "T1, Myc-tagged PPP2R2B (PPP2R2B-Myc) (human, UniProt Q00005 1-443)", "T1 construct": "Expressed in 293T cells (transient) or in DLD1-PPP2R2B Tet-on cells (Dox-induced) and immunoprecipitated from lysates with anti-Myc tag antibody 9E10; In cells it stands within a PP2A complex with the A and C subunits; also called B55β-Myc; B55β; not shown: C-terminal myc-His tag of the vector pcDNA4/myc-hisB or pcDNA4/TO/myc-hisB", "T1 sequence (looked up)": "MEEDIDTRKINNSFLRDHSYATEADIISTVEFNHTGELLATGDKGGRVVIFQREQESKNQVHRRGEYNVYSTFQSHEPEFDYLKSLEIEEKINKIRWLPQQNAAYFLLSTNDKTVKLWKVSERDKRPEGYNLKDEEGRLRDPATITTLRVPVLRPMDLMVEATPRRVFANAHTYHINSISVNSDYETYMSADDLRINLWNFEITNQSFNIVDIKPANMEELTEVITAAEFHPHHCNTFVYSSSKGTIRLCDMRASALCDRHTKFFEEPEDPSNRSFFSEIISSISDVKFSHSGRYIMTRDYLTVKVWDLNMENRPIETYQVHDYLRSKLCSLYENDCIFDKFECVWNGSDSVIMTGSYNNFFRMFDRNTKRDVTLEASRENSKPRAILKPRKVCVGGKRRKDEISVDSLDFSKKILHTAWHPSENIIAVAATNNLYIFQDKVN", "test": "co-immunoprecipitation from CRC cell lysates", "experimental": "FIG. 3D. Co-immunoprecipitation of PP2A scaffolding A subunit and catalytic C subunit with PPP2R2B. DLD1-PPP2R2B or vector control cells were treated with Dox and PPP2R2B was immunoprecipitated with anti-Myc tag antibody. WCL, whole cell lysates.", "data": [{"binder": "B1", "values": [{"measurement": "binding result", "result": "no binding"}]}]}
